According to ChEMBL document CHEMBL4725438, “Chiral Analogues of PFI-1 as BET Inhibitors and Their Functional Role in Myeloid Malignancies” (ACS Med Chem Lett, 2020):
The source made the active and inactive calls. No cut-off for these calls is given here.

How the values were obtained:
[1] = target: Bromodomain-containing protein 4 (Homo sapiens) (UniProt O60885); assay: Inhibition of BRD4 in human MOLM-14 cells harboring FLT3-ITD mutant assessed as reduction in cell proliferation at 1 to 5 uM after 72 hrs by tryphan blue staining based assay; conditions: dose microM 1-5, time 72.0 hrs
[2] = target: Bromodomain-containing protein 4 (Homo sapiens) (UniProt O60885); assay: Inhibition of BRD4 in human HEL cells harboring JAK2 V617F mutant assessed as cell cycle arrest by measuring increase in cell population at sub-G1 phase at 1 to 5 uM measured after 24 hrs by propidium iodide staining based FACS analysis; conditions: dose microM 1-5, time 24.0 hrs
[3] = target: Bromodomain-containing protein 4 (Homo sapiens) (UniProt O60885); assay: Binding affinity to N-terminal His-tagged human recombinant BRD4 bromodomain 1 (44-170 residues) expressed in Escherichia coli assessed as change in melting temperature at 10 uM by BromoMELT assay
[4] = target: Bromodomain-containing protein 4 (Homo sapiens) (UniProt O60885); assay: Inhibition of BRD4 in human HEL cells harboring JAK2 V617F mutant assessed as cell viability at 5 uM measured after 72 hrs by tryphan blue staining based assay relative to control
[5] = target: Bromodomain-containing protein 4 (Homo sapiens) (UniProt O60885); assay: Inhibition of BRD4 in human MOLM-14 cells harboring FLT3-ITD mutant assessed as cell viability at 5 uM measured after 72 hrs by tryphan blue staining based assay relative to control
[6] = target: Bromodomain-containing protein 4 (Homo sapiens) (UniProt O60885); assay: Inhibition of BRD4 in human MOLM-14 cells harboring FLT3-ITD mutant assessed as metabolic activity at 1 uM measured after 72 hrs by MTT assay relative to control; assay type: cell-based; parameters: scale not given: the % may be the effect or the level left
[7] = target: Bromodomain-containing protein 4 (Homo sapiens) (UniProt O60885); assay: Inhibition of BRD4 in human HEL cells harboring JAK2 V617F mutant assessed as metabolic activity at 1 uM measured after 72 hrs by MTT assay relative to control; assay type: cell-based; parameters: scale not given: the % may be the effect or the level left
[8] = target: Bromodomain-containing protein 4 (Homo sapiens) (UniProt O60885); assay: Inhibition of BRD4 in human MOLM-14 cells harboring FLT3-ITD mutant assessed as cell cycle arrest by measuring increase in cell population at sub-G1 phase at 1 to 5 uM measured after 24 hrs by propidium iodide staining based FACS analysis; conditions: dose microM 1-5, time 24.0 hrs
[9] = target: Bromodomain-containing protein 4 (Homo sapiens) (UniProt O60885); assay: Inhibition of BRD4 in human HEL cells harboring JAK2 V617F mutant assessed as reduction in cell proliferation at 1 to 5 uM after 72 hrs by tryphan blue staining based assay; conditions: dose microM 1-5, time 72.0 hrs
[10] = target: Bromodomain-containing protein 4 (Homo sapiens) (UniProt O60885); assay: Inhibition of BRD4 in human MOLM-14 cells harboring FLT3-ITD mutant assessed as cell cycle arrest by measuring decrease in cell population at S phase at 1 to 5 uM measured after 24 hrs by propidium iodide staining based FACS analysis; conditions: dose microM 1-5, time 24.0 hrs
[11] = target: Bromodomain-containing protein 4 (Homo sapiens) (UniProt O60885); assay: Inhibition of BRD4 in human MOLM-14 cells harboring FLT3-ITD mutant assessed as cell cycle arrest by measuring increase in cell population at G0/G1 phase at 1 to 5 uM measured after 24 hrs by propidium iodide staining based FACS analysis; conditions: dose microM 1-5, time 24.0 hrs
[12] = target: Bromodomain-containing protein 4 (Homo sapiens) (UniProt O60885); assay: Inhibition of BRD4 in human HEL cells harboring JAK2 V617F mutant assessed as cell cycle arrest by measuring increase in cell population at G0/G1 phase at 1 to 5 uM measured after 24 hrs by propidium iodide staining based FACS analysis; conditions: dose microM 1-5, time 24.0 hrs
[13] = target: Bromodomain-containing protein 4 (Homo sapiens) (UniProt O60885); assay: Inhibition of BRD4 in human HEL cells harboring JAK2 V617F mutant assessed as cell cycle arrest by measuring decrease in cell population at S phase at 1 to 5 uM measured after 24 hrs by propidium iodide staining based FACS analysis; conditions: dose microM 1-5, time 24.0 hrs

COc1ccccc1S(=O)(=O)Nc1ccc2c(c1)CN(C)C(=O)N2
inhibition [1]: Active
inhibition [2]: Active
ΔTm [3]: 5 °C
Activity [4]: 85%
Activity [5]: 85%
Activity [6]: 80%
Activity [7]: 73%
inhibition [8]: Active
inhibition [9]: Active
inhibition [10]: Active
inhibition [11]: Active
inhibition [12]: Active
inhibition [13]: Active
